Reference: patent US20250340604A1, “BLOOD-BRAIN BARRIER TRANSLOCATING PEPTIDES AND RELATED MOLECULES AND METHODS OF USE THEREOF” (Enkefalos Biosciences, Inc., priority 2022, published 2025)

Target: human transferrin receptor (hTfR), form not stated (human) (UniProt P02786)
Assay: standard receptor-substrate binding assay on hTfR

EC50: 0.45 nM
Substance: adalimumab-CYC17 cyclotide fusion (bivalent) (from UniProt P0DOX7 1-214) (other; other documents disagree on this pair)
